Values of other authors, collected in paper PMC9268615, “Identification of Anti-Proliferative Compounds from Genista monspessulana Seeds through Covariate-Based Integration of Chemical Fingerprints and Bioactivity Datasets” (Molecules, 2022).

Tests used:
[1] = test system: RAW 264.7 (mouse macrophages); conditions: cited from earlier work
BV2 (mouse microglia) = conditions: cited from earlier work

Substance: tonkinensine B
- cytotoxicity against normal RAW 264.7 vs precursors [1]: lower cytotoxicity
- cytotoxicity against normal BV2 vs precursors (BV2 (mouse microglia)): lower cytotoxicity
